# Data reported in patent US11033631B2, “Methods of treating CYP2D6 alternative metabolizers” (Nektar Therapeutics, priority 2008, dated 2021).
# The chains behind the UniProt entries cited, without tags or fusion partners.
# UniProt P08684, whole entry: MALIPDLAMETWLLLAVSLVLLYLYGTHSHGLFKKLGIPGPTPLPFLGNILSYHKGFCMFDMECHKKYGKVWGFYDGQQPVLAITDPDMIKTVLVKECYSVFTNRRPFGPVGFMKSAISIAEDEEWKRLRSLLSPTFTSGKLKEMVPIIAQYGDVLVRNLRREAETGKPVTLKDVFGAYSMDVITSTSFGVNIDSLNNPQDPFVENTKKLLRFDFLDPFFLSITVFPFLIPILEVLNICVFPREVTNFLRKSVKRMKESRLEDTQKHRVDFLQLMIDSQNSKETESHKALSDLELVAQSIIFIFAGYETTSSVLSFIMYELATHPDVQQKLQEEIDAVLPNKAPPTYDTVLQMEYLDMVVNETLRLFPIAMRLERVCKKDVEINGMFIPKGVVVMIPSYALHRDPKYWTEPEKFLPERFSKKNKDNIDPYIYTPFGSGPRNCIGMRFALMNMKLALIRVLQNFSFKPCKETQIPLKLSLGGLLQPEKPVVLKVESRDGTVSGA
# UniProt P10635, whole entry: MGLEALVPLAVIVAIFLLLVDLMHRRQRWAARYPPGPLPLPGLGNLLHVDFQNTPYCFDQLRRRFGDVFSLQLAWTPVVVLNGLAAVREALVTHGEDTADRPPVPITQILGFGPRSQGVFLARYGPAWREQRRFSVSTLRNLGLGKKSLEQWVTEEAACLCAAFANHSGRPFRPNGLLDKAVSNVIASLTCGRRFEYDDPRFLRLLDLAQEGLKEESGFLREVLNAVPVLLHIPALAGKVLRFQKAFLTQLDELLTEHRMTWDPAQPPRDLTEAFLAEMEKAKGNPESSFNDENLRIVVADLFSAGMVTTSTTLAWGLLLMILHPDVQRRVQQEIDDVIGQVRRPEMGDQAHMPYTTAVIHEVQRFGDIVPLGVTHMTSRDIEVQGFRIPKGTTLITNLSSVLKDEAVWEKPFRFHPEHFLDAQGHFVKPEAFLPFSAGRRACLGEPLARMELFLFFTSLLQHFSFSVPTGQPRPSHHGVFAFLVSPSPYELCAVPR
# Like-named read-outs stand apart in the source and are kept apart here.
# Columns and labels:
# [1] = target: T1, CYP3A4 (Homo sapiens, UniProt P08684); settings: microsomes
# [2] = target: CYP2D6 (Homo sapiens, UniProt P10635); settings: read-out: CYP2D6 Inhibition of dextromethorphan O-demethylation IC50; human liver microsomes 0.1 mg/mL, test compound 0.1-25 μM, 5 minutes
# [3] = target: T1, CYP3A4; settings: microsomes; remark: listed apart in the source
Substance,IC50 [1] [µM],IC50 [2] [µM],IC50 [3] [µM]
mPEG5-O-propranolol,> 25,> 25,7.6
mPEG5-desipramine,> 25,15.4,13.3
mPEG7-O-propranolol,> 25,> 25,10.7
mPEG8-N-debrisoquine,> 25,> 25,> 25
mPEG3-O-propranolol,> 25,14.7,8.1
mPEG6-N-debrisoquine,> 25,> 25,> 25
mPEG3-N-debrisoquine,> 25,11.3,> 25
mPEG3-desipramine,> 25,2.47,14
mPEG8-desipramine,> 25,> 25,13.5
